Experimental data taken from article PMC7878837, “Generation of Human-Induced Pluripotent Stem Cell-Derived Functional Enterocyte-Like Cells for Pharmacokinetic Studies” (Stem Cell Reports, 2021).

Test system: BCRP and P-gp

Structure (SMILES) | directional transport (B-to-A vs A-to-B) | effect on directional transport of [3H]-prazosin (20 μM elacridar)
COc1cc2nc(N3CCN(C(=O)c4ccco4)CC3)nc(N)c2cc1OC [[^3H]-prazosin, prazosin] | exceeded its A-to-B transport | 
COc1cc2c(cc1OC)CN(CCc1ccc(NC(=O)c3cccc4c(=O)c5cccc(OC)c5[nH]c34)cc1)CC2 [elacridar] |  | partial inhibition of BCRP and P-gp
